Results reported in US7919498B2, “Substituted pyrazolo[3,4-d]pyrimidines as PI3K inhibitors” (Amgen Inc., priority 2007, dated 2011).

The chains behind the UniProt entries cited, without tags or fusion partners. Where a name states a change or a piece, a line headed by the entry shows the natural chain unless it says otherwise.
UniProt O00329: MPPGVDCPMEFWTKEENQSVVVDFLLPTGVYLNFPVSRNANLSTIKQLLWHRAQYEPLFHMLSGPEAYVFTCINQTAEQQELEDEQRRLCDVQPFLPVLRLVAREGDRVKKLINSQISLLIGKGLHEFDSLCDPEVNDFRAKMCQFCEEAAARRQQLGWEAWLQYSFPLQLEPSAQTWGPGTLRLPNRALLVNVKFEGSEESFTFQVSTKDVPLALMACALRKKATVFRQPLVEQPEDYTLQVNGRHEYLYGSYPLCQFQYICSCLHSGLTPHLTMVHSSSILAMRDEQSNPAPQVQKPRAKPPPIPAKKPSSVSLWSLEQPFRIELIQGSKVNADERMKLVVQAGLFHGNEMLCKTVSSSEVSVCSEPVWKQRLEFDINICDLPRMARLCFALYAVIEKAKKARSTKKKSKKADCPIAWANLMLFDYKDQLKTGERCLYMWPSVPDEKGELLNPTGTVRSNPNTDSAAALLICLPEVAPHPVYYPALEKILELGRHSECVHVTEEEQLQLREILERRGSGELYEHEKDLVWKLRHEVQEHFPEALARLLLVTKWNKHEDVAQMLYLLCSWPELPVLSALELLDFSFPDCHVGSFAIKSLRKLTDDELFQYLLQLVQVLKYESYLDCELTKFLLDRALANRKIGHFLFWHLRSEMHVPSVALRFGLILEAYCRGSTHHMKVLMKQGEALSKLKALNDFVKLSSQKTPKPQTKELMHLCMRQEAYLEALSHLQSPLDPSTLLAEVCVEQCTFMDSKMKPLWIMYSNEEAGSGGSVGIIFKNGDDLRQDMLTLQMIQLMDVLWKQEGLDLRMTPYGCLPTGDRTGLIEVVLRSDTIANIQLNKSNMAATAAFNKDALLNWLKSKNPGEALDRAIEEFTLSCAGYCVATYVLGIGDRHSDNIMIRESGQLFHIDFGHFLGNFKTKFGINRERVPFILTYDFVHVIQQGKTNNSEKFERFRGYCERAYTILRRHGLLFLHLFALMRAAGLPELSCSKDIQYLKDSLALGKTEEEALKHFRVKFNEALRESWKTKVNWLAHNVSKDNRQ
UniProt P42338, whole entry, species assumed: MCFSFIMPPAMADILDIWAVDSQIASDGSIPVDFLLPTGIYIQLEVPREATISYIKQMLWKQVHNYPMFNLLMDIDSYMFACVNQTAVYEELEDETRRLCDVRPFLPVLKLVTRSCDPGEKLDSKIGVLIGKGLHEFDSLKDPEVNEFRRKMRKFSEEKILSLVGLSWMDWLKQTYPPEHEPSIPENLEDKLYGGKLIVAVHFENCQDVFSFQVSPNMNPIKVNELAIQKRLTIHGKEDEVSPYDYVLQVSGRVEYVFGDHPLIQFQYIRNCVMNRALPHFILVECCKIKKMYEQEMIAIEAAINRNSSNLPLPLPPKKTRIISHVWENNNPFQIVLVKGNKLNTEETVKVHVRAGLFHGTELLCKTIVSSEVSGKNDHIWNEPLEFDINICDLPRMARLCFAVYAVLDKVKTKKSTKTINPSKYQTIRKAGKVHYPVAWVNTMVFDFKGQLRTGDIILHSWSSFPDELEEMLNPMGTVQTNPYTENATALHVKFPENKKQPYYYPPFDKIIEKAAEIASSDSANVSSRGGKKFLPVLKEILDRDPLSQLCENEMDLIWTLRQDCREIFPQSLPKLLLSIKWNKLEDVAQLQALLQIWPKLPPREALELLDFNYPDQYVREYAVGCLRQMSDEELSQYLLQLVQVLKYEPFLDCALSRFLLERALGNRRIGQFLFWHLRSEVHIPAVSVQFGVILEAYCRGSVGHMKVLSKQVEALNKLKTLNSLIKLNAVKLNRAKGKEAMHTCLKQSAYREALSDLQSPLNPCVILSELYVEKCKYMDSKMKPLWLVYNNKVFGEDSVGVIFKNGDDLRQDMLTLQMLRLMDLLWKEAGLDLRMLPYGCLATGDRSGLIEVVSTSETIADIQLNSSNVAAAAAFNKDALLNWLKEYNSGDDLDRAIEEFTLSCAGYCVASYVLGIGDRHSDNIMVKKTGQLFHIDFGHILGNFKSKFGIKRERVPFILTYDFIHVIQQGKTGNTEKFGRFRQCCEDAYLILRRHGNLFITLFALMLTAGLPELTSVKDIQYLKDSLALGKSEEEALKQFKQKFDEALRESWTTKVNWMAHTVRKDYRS

Key:
PI3Kδ = molecular target: T1, PI3Kδ (Homo sapiens, UniProt O00329); assay: In vitro enzyme assay of PI3Kδ (residual ATP bioluminescence); type: biochemical
T1 construct: Full length p110 subunits of PI3k α, β and δ, N-terminally labeled with polyHis tag; polyHis (N); made in house; host or cells: Sf9 insect cells (baculovirus)
Procedure: Recombinant Expression of PI3Ks
Full length p110 subunits of PI3k α, β and δ, N-terminally labeled with polyHis tag, were coexpressed with p85 with Baculo virus expression vectors in sf9 insect cells. P110/p85 heterodimers were purified by sequential Ni-NTA, Q-HP, Superdex-100 chromatography. Purified α, β and δ isozymes were stored at −20° C. in 20 mM Tris, pH 8, 0.2M NaCl, 50% glycerol, 5 mM DTT, 2 mM Na cholate. Truncated PI3Kγ, residues 114-1102, N-terminally labeled with polyHis tag, was expressed with Baculo virus in Hi5 insect cells. The γ isozyme was purified by sequential Ni-NTA, Superdex-200, Q-HP chromatography. The γ isozyme was stored frozen at −80° C. in NaH2PO4, pH 8, 0.2M NaCl, 1% ethylene glycol, 2 mM β-mercaptoethanol.
Assays were performed in 25 μL with the above final concentrations of components in white polyproplyene plates (Costar 3355). Phospatidyl inositol phosphoacceptor, PtdIns(4,5)P2 P4508, was from Echelon Biosciences. […] The compound in DMSO (1 μL) was added per test well, and the inhibition relative to reactions containing no compound, with and without enzyme was determined. After assay incubation at room temperature, the reaction was stopped and residual ATP determined by addition of an equal volume of a commercial ATP bioluminescence kit (Perkin Elmer EasyLite) according to the manufacturer's instructions, and detected using a AnalystGT luminometer.

p110β = p110β (Homo sapiens, UniProt P42338); details: read-out: potency on beta; cited from earlier work

IC50 (PI3Kδ) [nM] | SMILES | IC50 (p110β) [nM]
7 | Cc1ccccc1-c1nc2c(C)cccc2cc1Cn1nc(-c2cccc(O)c2)c2c(N)ncnc21 [Example 9, 3-(4-Amino-1-((8-methyl-2-o-tolylquinolin-3-yl)methyl)-1H-pyrazolo[3,4-d]pyrimidin-3-yl)phenol] | 
 | Cc1cc(C(C)Nc2ccccc2)c2nc(N3CCOCC3)cc(=O)n2c1 (centres unmarked) [TGX-221] | 7
